# Assay results reported in patent US4585859A, “Analogues of morpholinyl daunorubicin and morpholinyl doxorubicin” (priority 1984, dated 1986).
# Where “and” joins values, the source holds several entries; their conditions need not be identical. Equal entries are not always repeated.
# System: L1210 leukemia
# Conditions: in vivo, ip
Compound,"Mouse Antitumor Efficacy at Optimum Dose, % T/C",Optimum Dose (mouse)
"COc1cccc2c1C(=O)c1c(O)c3c(c(O)c1C2=O)C[C@@](O)(C(=O)CO)C[C@@H]3O[C@H]1C[C@H](N2CCOCC2C#N)[C@H](O)[C@H](C)O1 (stereo partly shown) [NSC 357704, 3'-deamino-3'-(3""-cyano-4""-morpholinyl)doxorubicin]",164% and > 164% and 166%,–
"COc1cccc2c1C(=O)c1c(O)c3c(c(O)c1C2=O)C[C@@](O)(C(O)CO)C[C@@H]3O[C@H]1C[C@H](N2CCOCC2C#N)[C@H](O)[C@H](C)O1 (stereo partly shown) [NSC 360291, 3'-deamino-3'-(3""-cyano-4""-morpholinyl)-13-dihydrodoxorubicin]",152% and > 128% and > 148%,0.025 mg/kg and 0.05 mg/kg
COc1cccc2c1C(=O)c1c(O)c3c(c(O)c1C2=O)C[C@@](O)(C(=O)CO)C[C@@H]3O[C@H]1C[C@H](N)[C@H](O)[C@H](C)O1 [doxorubicin],168% and 173%,–
